Bioassay records from PubChem BioAssay.
The list is not random: actives were taken first. Their share in the collection is about 2.4%.
PKM2 activator – increases activity of human pyruvate kinase M2; purified PKM2, Kinase-Glo ATP luminescence, activation; response scale: 0% is enzyme alone, no compound; Potency, µM (series often up to 57.5 µM), without a hit: at the top dose activation, hits mostly activators; 260,000 compounds, 0.34% hits; also: % is scaled to controls: 0 for no effect and ±100 for the full control effect; nearly all actives have a fitted effect of over 55% in size
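hPK-M2, >95% pure; 0.1 mM ADP / 0.5 mM PEP final; imidazole pH7.2 buffer w/ 7 mM MgCl2, 50 mM KCl; 1 h RT; Kinase-Glo lum. Intermediate enzyme activity for dual inhibitor/activator qHTS.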
PGK inhibitor – T. brucei PGK inhibition. PGK/GAPDH coupled, Kinase-Glo luminescence, 60 min. Potency, µM (highest dose often 57.5 µM), for the others: top-dose activity change, negative = inhibition, usual class: inhibitors. 380,000 compounds, 0.043% hits; also: % is scaled to controls: 0 for no effect and ±100 for the full control effect; nearly all actives have a fitted effect of over 60% in size
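Recombinant glycosomal PGK reaction used 1,3-bisphosphoglycerate generated in-well by GAPDH (100nM final) in 100mM TEA pH 7.6, 5mM MgCl2, 0.01% Tween-20. After 60 minutes at room temperature, ATP was read by Kinase-Glo Plus luminescence end-point.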
Rango release inh – prevents RanGTP from dissociating the Rango-importin beta complex; O95149+P62826; Biochemical FRET Rango-importin beta, RanGTP-induced dissociation; Potency, µM (highest dose often 46.1 µM), without a hit: at the top dose activity change, negative = inhibition; 340,000 compounds, 0.071% hits; calls by dose curve; also: % of control where 0% means no effect; nearly all actives have a fitted effect of over 45% in size
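Recombinant Rango FRET biosensor (EYFP–snurportin 1 IBB–cerulean CFP10) at 0.1 uM premixed with 0.25 uM importin beta in PBS, 1 mM DTT, 0.02% Tween-20, 0.1% BSA. Compound added 5 min; RanGTP-RCC1 (0.6 uM Ran, 2 mM GTP, 0.2 uM RCC1) then triggers release, read at 45 min.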
ELG1 DNA repair – inhibitors of ELG1-dependent DNA repair in HEK293T cells. HEK293T ELG1-luciferase reporter, luminescence, 16 h; DNA damage induced by 5-fluorouridine. Potency, µM (top dose mostly 46.1 µM), inactives show at the highest dose activity change, negative = inhibition, hits mostly inhibitors. 330,000 compounds, 2.3% hits; also: % is scaled to controls: 0 for no effect and ±100 for the full control effect; nearly all actives have a fitted effect of over 55% in size
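Luminescence from the luciferase reporter, measured 30 min after ONE-Glo reagent at room temperature, was the read-out. Beforehand, 2,000 cells per well were exposed for 16 hr at 37 °C to 5-fluorouridine together with compound or vehicle.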
Tb PFK inh – blocks T. brucei phosphofructokinase | Potency, µM (series often up to 57.5 µM), without a hit: at the top dose activity, negative = inhibition, hits mostly inhibitors | 330,000 compounds, 0.17% hits | AID 485367 | O15648 | T. brucei PFK, ADP-Glo luminescence;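 also: 0% = uninhibited 1x PFK enzyme wells and -100% = no-enzyme wells; nearly all actives have a fitted effect of over 60% in size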
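Compounds were pin-transferred as a titration series up to 57 uM into substrate buffer (0.5 mM F6P, 0.1 mM ATP, pH 8.0), then 1.25 nM PFK was added and reactions ran 45 min before ADP-Glo detection.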
Rango-impB inh – prevents formation of the Rango-importin beta complex | Q14974 | Rango CFP/YFP FRET sensor + importin beta, 45 min | Potency, µM (series often up to 92.2 µM), inactives show top-dose inhibition of complex formation | 340,000 compounds, 0.031% hits | AID 540263; calls by dose curve;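 also: 0% = DMSO wells and 100% = buffer wells lacking importin beta; nearly all actives have a fitted effect of over 15% in size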
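Inhibition scored from the CFP 486 nm/YFP 530 nm FRET ratio 45 min after adding 0.125 microM importin beta to 50 nM Rango biosensor preincubated 5 min with compound (room temperature, PBS with DTT, Tween-20, BSA). No-importin wells as positive control.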
* hit, by the source's call; i = inactive; ? = inconclusive; . = not tested or not shown. Unless noted, calls follow the shape of the dose curve; as a rule, active = well fitted curve in the direction sought with a large enough effect; inconclusive = small, poorly fitted or top-dose-only effect, or another doubt; inactive = no such curve, though single readings can be large; an effect the other way counts as inactive or inconclusive. Potency is read from the fitted curve at half-maximal effect.

SMILES | PKM2 activator | PGK inhibitor | Rango release inh | ELG1 DNA repair | Tb PFK inh | Rango-impB inh
COc1cc(NC(=O)CN2c3ccccc3CC2C)cc(OC)c1OC (stereo not drawn) | -1.5% | -0.3% | -1.2% | 16.4µM* | -2.6% | -1.3%
CC1Cc2ccccc2N1CC(=O)Nc1ccc(Cl)c(S(=O)(=O)N(C)C)c1 (stereo not drawn) | -5.7% | 1.4% | -6.2% | 23.1µM* | -1.6% | 1.7%
COCCOC(=O)c1c(NC(=O)CN2c3ccccc3CC2C)sc(C(N)=O)c1C (stereo not drawn) | -3.7% | -3.7% | 6.2% | 9.2µM* | -2.6% | -1.0%
CC1Cc2ccccc2N1CC(=O)Nc1ccc(S(=O)(=O)N(C)C)cc1 (stereo not drawn) | -5.3% | 4.7% | -24.5% | ? | -11.4% | ?
Cc1ccc(N(C)S(=O)(=O)c2cccc(C(=O)Nc3ccc(N4CCOCC4)cc3)c2)cc1 | . | -7.2% | 2.3% | 16.4µM* | -4.3% | -0.6%
CN(c1ccccc1)S(=O)(=O)c1cccc(C(=O)Nc2ccc(N3CCOCC3)cc2)c1 | . | 7.7% | 4.8% | 18.3µM* | 6.0% | 0.2%
O=C(COc1ccc(F)cc1)NC1CC(=O)N(c2ccc3c(c2)OCCO3)C1 (stereo not drawn) | . | -4.2% | . | . | . | .
CCOC(=O)C1CCCCN1C(=O)/C(=C/c1ccc(OC)cc1)c1ccc(OC)c(OC)c1 (stereo not drawn) | . | 8.9% | 2.2% | 18.3µM* | 0.7% | -2.4%
COc1ccc(/C=N/Nc2ncnc3scc(-c4ccccc4)c23)cc1OC | 3.0% | i | 7.1% | 18.4µM* | 0.4% | -2.8%
COc1ccccc1Nc1ncnc2scc(-c3ccc(F)cc3)c12 | . | 2.7% | . | . | . | .
COc1ccc(/C=N/Nc2nc(-c3cccnc3)nc3ccccc23)cc1OC | -1.1% | -6.5% | -6.1% | 6.51µM* | 0.0% | 0.8%
CCOc1ccc(CN(C)c2nc(-c3cccnc3)nc3ccccc23)cc1OC | 3.0% | -8.3% | 4.7% | 18.3µM* | -15.2% | 3.5%
Cc1c(O)ccc(/C=N/Nc2nc(-c3cccnc3)nc3ccccc23)c1O | -2.4% | -6.7% | -6.1% | 5.17µM* | -8.0% | ?
CCOc1ccc2nc(N3CCN(C(=O)CS(=O)(=O)c4ccc(F)cc4)CC3)sc2c1 | . | 5.0% | . | . | . | .
Cc1cc(Nc2cccc(F)c2)n2nc(-c3ccco3)nc2n1 | . | 7.7% | . | . | . | .
C/C(=N\Nc1cc(C)nc(-c2ccccc2O)n1)c1ccccc1 | 6.8% | -5.0% | -1.0% | ? | -1.0% | 0.7%
Cc1cc(N/N=C/c2ccc(O)c(C)c2O)nc(-c2ccccc2O)n1 | -6.9% | -5.9% | 14.8% | 2.91µM* | 15.0% | -1.2%
Oc1ccc(/C=N/Nc2nc(-c3cccnc3)nc3ccccc23)c(O)c1 | -1.4% | -4.8% | ? | 16.4µM* | 8.2% | ?
Cc1cccc(-c2nc(CN3CCN(Cc4cccc(F)c4)CC3)c(C)o2)c1 | 0.3% | -1.0% | -11.0% | -19.5% | -1.5% | 0.4%
COc1ccc2c(c1)[C@H]1[C@H](CO2)[C@H](c2ccccc2)[C@]2(C)C(=O)N(Cc3ccc(C)cc3)CC(=O)N12 | . | -5.2% | -4.5% | 18.3µM* | -0.1% | -0.5%
NC(=O)c1ccc(N=Nc2c(O)c3ccccc3[nH]c2=O)cc1 | -3.4% | . | . | 7.1% | 2.1% | .
N=C(N)c1ccc(N=Nc2c(O)ccc3c2[nH]c2ccccc23)cc1 | . | -10.9% | -3.0% | . | . | 58µM*
O=C(O)c1cc(-c2ccc(/C=c3\sc4nc5ccc(Br)cc5n4c3=O)o2)ccc1Cl | 3.7% | . | . | 0.6% | 0.849µM* | .
O=C(O)c1cc(-c2ccc(/C=C3\NC(=O)N(c4ccc(Cl)cc4)C3=O)o2)ccc1Cl | 4.0% | 31.6µM* | ? | 6.3% | -2.7% | ?
COc1ccc(C(=O)Nc2ccc(S(=O)(=O)N(C)c3ccccc3)cc2)cc1 | . | -1.0% | 13.7% | . | . | 10.0%
CCN(c1ccccc1)S(=O)(=O)c1ccc(C(=O)Nc2nnc(COC)o2)cc1 | -9.2% | -9.2% | -23.2% | ? | -1.4% | -2.9%
COC(=O)CCC(=O)N1CCc2cc(S(=O)(=O)N3CCc4ccccc43)ccc21 | 12.6µM* | -0.3% | -7.6% | -0.7% | -2.6% | ?
COCCN(CCOC)S(=O)(=O)c1ccc(C(=O)Nc2nnc(C3CC3)o2)cc1 | 1.1% | 7.1% | 6.3% | 6.8% | -6.5% | -0.4%
CN(c1ccccc1)S(=O)(=O)c1ccc(C(=O)Nc2nnc(C3CC3)o2)cc1 | 1.0% | -3.3% | -0.5% | 10.3µM* | -2.8% | 3.9%
COc1ccc(NC(=O)c2ccc(S(=O)(=O)N(C)c3ccccc3)cc2)cn1 | -0.6% | i | -7.1% | 10.3µM* | -3.6% | 2.6%
CCN(c1ccccc1)S(=O)(=O)c1ccc(C(=O)Nc2nnc(C3CC3)o2)cc1 | 8.4% | 2.6% | -6.6% | 10.3µM* | 11.0% | -2.1%
CC(=O)N1CCc2cc(S(=O)(=O)N3CCc4ccccc43)ccc21 | 20.7% | -0.5% | 0.9% | 0.3% | -13.5% | -0.1%
Cc1ccc2oc(C(=O)Nc3c(C(=O)c4ccc(C)c(F)c4)oc4ccccc34)cc(=O)c2c1 | . | 3.2% | . | . | . | .
COc1ccc(NC(=O)/C(Cl)=C(/Cl)S(=O)(=O)Cc2ccccc2)cn1 | 0.6% | i | -4.1% | 18.4µM* | 0.4% | -2.1%
COc1ccc(NC(=O)c2cccc(S(=O)(=O)N3CCc4ccccc43)c2)cn1 | 1.0% | -5.9% | 0.7% | 8.2µM* | 0.6% | -2.6%
O=C(Nc1ncccc1O)c1cccc(S(=O)(=O)N2CCc3ccccc32)c1 | -2.3% | -7.7% | 1.8% | 0.5% | -3.9% | 2.0%
COc1ccc(NC(=O)C(Cl)=C(Cl)Cl)cn1 | -0.2% | i | 5.2% | 1.1% | 2.3% | 2.0%
COc1cc(Cl)c(NC(=O)CN(C)S(=O)(=O)c2ccc3[nH]c4c(c3c2)CCCC4)c(OC)c1 | . | -7.9% | . | . | . | .
CN(C)/C=N/c1c(C#N)cnn1-c1ccccc1 | -2.8% | -7.6% | 5.2% | -0.6% | -5.2% | -1.4%
CN(C)/C=N/c1c(C#N)cnn1-c1ncnc2sc(-c3ccccc3)cc12 | ? | 6.9% | -3.8% | 18.4µM* | 3.1% | 2.2%
CC(C)N(Cc1nccn1C)C(=O)CC1C(=O)NCCN1Cc1ccc(F)c(F)c1 (stereo not drawn) | -3.9% | 2.9% | -10.0% | -3.9% | 1.8% | -4.3%
Cc1[nH]c2ccccc2c1C(=O)C(C)OC(=O)c1ccc(Cl)nc1 (stereo not drawn) | . | 0.4% | -9.7% | -9.6% | -2.0% | 2.1%
O=C(CSc1ncc(-c2ccc(F)cc2)n1Cc1ccco1)Nc1ccc2c(c1)OCO2 | 4.1% | -0.1% | 3.1% | . | . | -0.8%

By substructure, those above with a thiophene ring, fused or not (4)
SMILES | PKM2 activator | PGK inhibitor | Rango release inh | ELG1 DNA repair | Tb PFK inh | Rango-impB inh
COCCOC(=O)c1c(NC(=O)CN2c3ccccc3CC2C)sc(C(N)=O)c1C (stereo not drawn) | -3.7% | -3.7% | 6.2% | 9.2µM* | -2.6% | -1.0%
COc1ccc(/C=N/Nc2ncnc3scc(-c4ccccc4)c23)cc1OC | 3.0% | i | 7.1% | 18.4µM* | 0.4% | -2.8%
COc1ccccc1Nc1ncnc2scc(-c3ccc(F)cc3)c12 | . | 2.7% | . | . | . | .
CN(C)/C=N/c1c(C#N)cnn1-c1ncnc2sc(-c3ccccc3)cc12 | ? | 6.9% | -3.8% | 18.4µM* | 3.1% | 2.2%
